# Results reported in patent US8278066B2, “Truncated somatostatin receptors” (Board of Regents, The University of Texas System, priority 2001, dated 2012).
# Protein sequences, listed by entry. Tags and fused reporters are not part of them. Residues count along the entry.
# UniProt P30874, 1-314, stated change not applied: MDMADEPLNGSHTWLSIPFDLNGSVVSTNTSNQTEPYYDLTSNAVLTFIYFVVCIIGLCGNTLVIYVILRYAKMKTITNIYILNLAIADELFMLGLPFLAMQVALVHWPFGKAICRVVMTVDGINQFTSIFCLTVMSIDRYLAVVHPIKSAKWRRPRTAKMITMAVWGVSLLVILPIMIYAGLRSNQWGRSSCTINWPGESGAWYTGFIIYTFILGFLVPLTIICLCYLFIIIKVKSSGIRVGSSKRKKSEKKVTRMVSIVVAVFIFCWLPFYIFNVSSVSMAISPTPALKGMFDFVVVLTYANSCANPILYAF
# Tests used:
# [1] = biological target: tumors derived from clones tail-4 and tail-1 (C-terminus cytoplasmic domain deleted) (Homo sapiens, UniProt P30874); assay: Biodistribution, tumors from tail minus clones; details: 24 hours
# [2] = doses of radiotracer similar to those used in humans
# [3] = biological target: tumors derived from clones expressing full length SSTR2A fusion protein (Homo sapiens, UniProt P30874); details: mouse, in vivo
substance,measurement,setting,value
^111In-octreotide,"biodistribution in tumors, tail-4 versus clone 21",[1]; similar expression levels and receptor binding,greater biodistribution is seen in tumors derived from tail-4 than clone 21
same,"radiotracer uptake in tumors, tail-1 versus clone 11",[1]; similar receptor expression and ligand binding,greater radiotracer uptake was seen in tumors derived from clone tail-1 than clone 11
same,"Radioactivity per gram in organs, order",[2],"greatest in the kidneys, followed by the liver, gastrointestinal tract, lungs and spleen"
same,blood and muscle uptake per gram,[2],quite low
same,"radioactivity/gram in tumors, order",[3],"greatest radioactivity/gram was in tumors derived from clone 21, followed by clone 3, clone 11"
same,"uptake of radiotracer/gram, clone 11 tumors versus vector tumors",[3],more uptake of radiotracer/gram than tumors derived from cells transfected with vector only
